AlphaSeq binding of Ab-14 light chain variants to a spike HR2 peptide

Target: peptide PDVDLGDISGINAS, taken from heptad repeat 2 (HR2) of SARS-CoV-2 spike.

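Phage display of a naive human antibody library on the peptide gave the parent. The variants were designed computationally from a first round of random CDR variants and then made and measured. Their group label is 14L_En_Gen (En: ensemble of fine-tuned language models; Gen: genetic algorithm). In AlphaSeq, yeast of one mating type display the scFv and yeast of the other type display the target. Pairs that bind mate more often; barcode pairs of the diploids are counted by sequencing. Read counts were normalised to the haploid input and turned into Kd by a linear fit to BCL2-family pairs of known affinity, for each replicate. Mating was done six times.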

The variants keep the heavy chain, the linker and the frameworks of Ab-14 (scFv order VH, a (GGGGS)3 linker, VL).
VH: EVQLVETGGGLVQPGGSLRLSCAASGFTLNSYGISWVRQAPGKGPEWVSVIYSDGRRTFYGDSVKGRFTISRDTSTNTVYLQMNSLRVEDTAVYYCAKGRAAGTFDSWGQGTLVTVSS
VL: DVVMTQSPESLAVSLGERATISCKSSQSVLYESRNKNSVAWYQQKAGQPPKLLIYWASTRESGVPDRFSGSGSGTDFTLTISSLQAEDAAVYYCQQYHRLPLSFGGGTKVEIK

Each variant is given by its three light chain CDRs, as the data file delimits them; those of the parent are KSSQSVLYESRNKNSVA, WASTRES, QQYHRLPLS. Numbers give log10(Kd / nM), so 0 is 1 nM and 3 is 1 µM. Smaller is tighter. An entry "n.d." has no value in the source: the pair was not observed among the diploids in that replicate. This suggests poor binding but is not conclusive. A sequence measured in both rounds can read differently, since the two assays cover different ranges.

CDR-L1	CDR-L2	CDR-L3	log10 Kd, replicates	empty controls
MMSQVTALGQRHRNNVA	QTSTRED	QQYDRLPLI	1.02 / 0.54 / 0.81 / 0.99 / 0.61 / 1.42	0 of 18
MISQVMNTLTRNGNNVA	DLQEREQ	QQYFRLPLS	1.82 / 1.33 / 0.77 / 2.54 / 1.35 / 1.31	1 of 18 (2.21)
MMSQVTGSGQRHRNNVA	QTSEREP	QQYDRLPLI	1.48 / 1.29 / 1.28 / 1.52 / 1.02 / 1.38	1 of 18 (3.85)
KVSEFMRGLMMRKDSIA	DNETRNS	QQYDRLPLS	1.20 / n.d. / 1.46 / 2.21 / 2.53 / 2.53	0 of 18
TISMHTSLFSQTINNVA	EVSTRIQ	QQYDRLPLI	1.82 / 2.32 / 1.45 / 1.86 / 1.82 / 1.97	1 of 18 (1.56)
QIYQAGHTLMQAINNVA	DVTNRNN	QQYHRLPLS	n.d. / 2.38 / 2.66 / 3.26 / 1.65 / n.d.	0 of 18
KLSTVTGTEKVKGNNVA	EMETRES	QQYNRLPLA	0.47 / 0.30 / 0.26 / 0.44 / 0.18 / 0.43	2 of 18 (3.25)
MISELMNMGQFAINSVA	QASIRNE	QQYDRLPLI	1.33 / 1.26 / 0.71 / 0.67 / 0.86 / 1.27	1 of 18 (1.86)
KIGMTLNTLQHQKNNVA	DLVMREQ	QQYHRLPLS	0.90 / 0.89 / -0.20 / 0.33 / -0.22 / 0.48	0 of 18
HISGFMKSLSAHMNNVA	DMTNRED	QQYDRLPLS	0.45 / 0.42 / 0.21 / 0.07 / 0.28 / 0.32	1 of 18 (3.35)
HITYGMNVAGRHSSSIA	QAEEREK	QQYDRLPLS	0.35 / 0.21 / 0.19 / 0.28 / 0.01 / 0.10	3 of 18 (3.24)
KLSQTHGMEMVNRNSVA	ELVTRLN	QQYNRLPLS	0.91 / 1.04 / 1.25 / 2.56 / 0.61 / 1.53	0 of 18
MLSQMWAIGMKVSNSVA	QASTRFE	QQYERLPLI	1.23 / 1.50 / 1.07 / 1.32 / 1.74 / 2.75	1 of 18 (2.69)
TISEVMETLTRHGNNVA	DLAERED	QQYFRLPLS	1.12 / 0.61 / 0.55 / 0.69 / 0.48 / 0.85	0 of 18
SLYEVSEELSGKKHSVA	DNSTRGD	QQYFRLPLE	0.54 / 1.46 / 0.66 / 0.60 / 0.97 / 0.78	0 of 18
KISMHAGHMSMSRNNVA	EMVTREN	QQYDRLPLS	0.43 / 0.45 / 0.33 / 0.16 / 0.26 / 0.42	1 of 18 (3.46)
KLSMVHGHLSMAENNVA	EMVTREK	QQYNRLPLS	0.42 / 0.51 / 0.58 / 0.53 / 0.20 / 0.60	0 of 18
MISQLYNMGQFAINSVA	QASQRCE	QQYDRLPLQ	1.38 / 1.12 / n.d. / 1.63 / n.d. / 0.84	1 of 18 (1.57)
QLYELMVELSGKTHSVA	DNSTRGE	QQYFRLPLE	1.89 / 0.75 / 1.19 / 0.99 / 0.82 / 1.08	3 of 18 (2.11)
SISGFMKSLSAHINSVA	DMTNREN	QQYERLPLS	0.51 / 0.63 / 0.56 / 0.69 / 0.47 / 0.61	0 of 18
TLYGLSNSMSINKNSVA	EMTTRED	QQYDRLPLI	0.75 / 0.71 / 0.56 / 0.75 / 0.44 / 0.84	1 of 18 (2.80)
KLSMITGHMSMSRNNVA	EMVTREN	QQYNRLPLS	0.59 / 0.38 / 0.40 / 0.14 / 0.09 / 0.39	0 of 18
KLTSVTGTEKVRGNNVA	EMETREK	QQYNRLPLS	0.64 / 0.29 / 0.73 / 0.18 / 0.87 / 0.49	1 of 18 (1.62)
IVSQLMLWGYHAKNSIA	EAETRPN	QQYDRLPLM	1.00 / 0.70 / 0.79 / 1.34 / 0.86 / 0.94	0 of 18
IVSQLMIWGMHYKNSIA	EAELRLN	QQYDRLPLF	0.20 / 0.26 / n.d. / 1.67 / n.d. / 1.50	0 of 18
MISQLMQMGQFAINSVA	QASIRNA	QQYDRLPLA	n.d. / n.d. / 1.07 / n.d. / n.d. / 3.55	0 of 18
HMSMLTLMGMRQRNSVA	QMTMREN	QQYDRLPLA	1.48 / 2.04 / 1.42 / 1.37 / 1.95 / 1.24	0 of 18
KLTSITGTEKVLGNNVA	EMETREN	QQYNRLPLS	0.52 / 0.04 / 0.08 / -0.04 / 0.18 / 0.22	3 of 18 (3.45)
MFSQMLAIGHKAKNSVA	QASMRFN	QQYDRLPLI	n.d. / n.d. / 1.61 / n.d. / 3.33 / n.d.	1 of 18 (2.15)
MVSQLMLWGLHAKNSIA	EAEHRIN	QQYDRLPLF	n.d. / 2.67 / 3.48 / 1.24 / 2.42 / 2.35	2 of 18 (2.52)
KISMLINQTFEESNNVA	EMVTRYK	QQYNRLPLS	1.72 / 1.47 / 1.37 / 2.05 / 1.78 / 1.88	1 of 18 (2.93)
MMSQVTGLGQRHRNNVA	QTSEREA	QQYDRLPLI	2.66 / 1.26 / 1.85 / 1.26 / 1.63 / 3.20	0 of 18
TIGSTLMYGMRNRSNVA	EVSERLN	QQYDRLPLI	2.00 / 1.93 / 1.78 / 1.88 / 2.28 / 2.82	0 of 18
TIGQTLMYGMRNRSNVA	EVSQRLN	QQYDRLPLM	1.02 / 0.85 / 0.88 / 0.83 / 1.17 / 1.15	0 of 18
IIDQLMYHGNKRANSIA	QASERLN	QQYHHLPLT	1.01 / 1.33 / 0.55 / 1.90 / 1.26 / 0.95	0 of 18
MVYQAAMMGMSTRNSIA	NAQMRPD	QQYHRLPLI	1.40 / 0.93 / 1.17 / 1.47 / 1.34 / 1.78	0 of 18
MISQLYNMGQFAINSVA	QASQRNE	QQYDRLPLT	1.17 / 2.31 / 1.52 / 2.31 / 1.44 / 1.81	0 of 18
HIGLSTMLEEIVRNSVA	NNSTREE	QQYDRLPLS	2.17 / 2.19 / n.d. / 1.46 / 3.55 / 2.83	0 of 18
QIYQAMHTLSQKKNNVA	DVNERGQ	QQYYRLPLS	0.84 / 0.41 / -0.13 / 0.08 / 0.44 / 0.91	2 of 18 (3.00)
KLTQTMRFEQKKKNNIA	EVSTRSQ	QQYVRLPLA	n.d. / n.d. / n.d. / 0.99 / 1.38 / 2.76	0 of 18
KLAMYTGHMSVSKNNVA	EMETREN	QQYDRLPLS	n.d. / n.d. / 2.00 / 2.98 / 1.96 / n.d.	0 of 18

Top 6 of the variants detected in all replicates, tightest first:

CDR-L1	CDR-L2	CDR-L3	log10 Kd, replicates	empty controls
KLTSITGTEKVLGNNVA	EMETREN	QQYNRLPLS	0.52 / 0.04 / 0.08 / -0.04 / 0.18 / 0.22	3 of 18 (3.45)
HITYGMNVAGRHSSSIA	QAEEREK	QQYDRLPLS	0.35 / 0.21 / 0.19 / 0.28 / 0.01 / 0.10	3 of 18 (3.24)
HISGFMKSLSAHMNNVA	DMTNRED	QQYDRLPLS	0.45 / 0.42 / 0.21 / 0.07 / 0.28 / 0.32	1 of 18 (3.35)
KLSMITGHMSMSRNNVA	EMVTREN	QQYNRLPLS	0.59 / 0.38 / 0.40 / 0.14 / 0.09 / 0.39	0 of 18
KISMHAGHMSMSRNNVA	EMVTREN	QQYDRLPLS	0.43 / 0.45 / 0.33 / 0.16 / 0.26 / 0.42	1 of 18 (3.46)
KLSTVTGTEKVKGNNVA	EMETRES	QQYNRLPLA	0.47 / 0.30 / 0.26 / 0.44 / 0.18 / 0.43	2 of 18 (3.25)

Three control strains display no target. For all light chain designs, 4% of the pairings with them gave a signal, with a median of 2.64 and one signal in twenty below 1.59, so weak values seen in few replicates may be background. Also given: how often the same scFv was detected with the empty control strains, with their mean in brackets. The authors' rule: three or more of the six replicates give a measured affinity, fewer mean a poor binder.

Values reported by Li et al. 2023, doi:10.1038/s41467-023-39022-2 (FLAb copy).